Experimental findings from US8350049B2, “Immobilized 1,2-benzisothiazolin-3-one” (priority 2006, dated 2013) are described below.

The series in a line: HPLC analysis of free (methanol-soluble) and immobilized BIT in a BIT/ZnO complex. Format: physicochemical. On the procedure:
For purposes of this invention, “immobilized BIT” and “free BIT” are defined in operational terms based on the fact that BIT per se is soluble in methanol at greater than 5%, i.e., 5 grams of pure BIT will be completely soluble in 100 ml of methanol. […]
Approximately 500 mg of the BIT/ZnO complex is weighed exactly (exact weight can vary depending upon the expected “free” BIT content of the complex being analyzed) into a 100 ml flask. A quantity of 50 ml of methanol (HPLC-grade) is added. […] The reaction mixture is then filtered over a 0.25μ membrane filter (e.g., Millipore) and is ready to be injected into an HPLC-column.
The HPLC-conditions for analysis of the “free” BIT is the same as set out above in part 1. The amount of “free” BIT in the BIT/ZnO complex is then determined by comparison to an external standard (150 mg BIT/1 liter methanol).
The BIT/ZnO product was analyzed by heating 300 mg at 60° C. for 10 minutes with 50 ml of a 5% solution of sodium hydroxide in methanol. Sufficient methanol was added to bring the solution to 100 ml and the resulting solution was filtered through a 0.45 micron filter and injected into a RP-18 HPLC column (eluent was an acetonitrile/water mixture.) The amount of BIT was determined using an external standard and a UV detector operating at 310 nm. […]

On to “bis-(1,2-Benzisothiazolin-3-one)zinc(II)chloride [Example 1]”, for which the “solubility of the complex in methanol” value is reported as “almost completely soluble in methanol”. Besides, where the note is “free BIT by HPLC, % of the product”, the “soluble BIT from methanol extract” value turned out to be 63%.
